# Results taken from PubChem BioAssay AID485 (The Scripps Research Institute Molecular Screening Center, 2006).
# Chains of the proteins cited; added tags and fusions are not shown.
# UniProt Q99500, whole entry: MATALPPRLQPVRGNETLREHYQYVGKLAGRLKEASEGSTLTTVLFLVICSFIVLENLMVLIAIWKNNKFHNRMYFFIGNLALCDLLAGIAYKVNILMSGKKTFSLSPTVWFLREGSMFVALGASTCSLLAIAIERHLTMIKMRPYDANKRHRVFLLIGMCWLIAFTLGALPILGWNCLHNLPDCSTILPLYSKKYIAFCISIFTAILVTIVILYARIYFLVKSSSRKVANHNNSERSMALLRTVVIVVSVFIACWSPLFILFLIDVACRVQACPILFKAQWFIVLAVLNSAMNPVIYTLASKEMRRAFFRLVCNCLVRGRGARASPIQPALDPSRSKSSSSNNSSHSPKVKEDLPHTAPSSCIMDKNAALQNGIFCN
# The entries are a selection whose mix differs from that of the whole data set. Calls of active or inactive are those of the source.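 How the source made its calls: active means inhibition above the plate cutoff, the mean inhibition of test wells on that plate plus 3 SD (cut at about 28% in these data); inactive means the rest.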
# Biological target: Sphingosine 1-phosphate receptor 3 (Homo sapiens) (UniProt Q99500)
# Assay: inhibition of S1P-stimulated S1P3 activation – cell-based, primary screen (AID 485);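 further: cells challenged with S1P at its EC80 of 0.8 µM; blue over green emission ratio from cleaved BLA substrate after 4 h stimulation; 0% = S1P-stimulated wells and 100% = unstimulated DMSO-only wells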
# Details: CHO S1P3 NFAT-BLA reporter, FRET fluorescence, antagonist mode; at 4.98 µM; stronger effect = higher value
row,SMILES,inhibition
1,COc1ccc(CN(CCCl)CCCl)cc1Cl,inactive: -10.9%
2,CN(C)c1cccc(C(=O)NCC2(N3CCCCC3)CCCCC2)c1,inactive: -4.77%
3,CC(C)c1ccc(NC2CCN(C(=O)OC(C)(C)C)CC2)cc1,inactive: -3.58%
4,CN1CCN(CCOC(=O)C(O)(c2ccccc2)c2ccccc2)CC1,inactive: -4.25%
5,COc1ccc(NC2CCN(C(=O)OC(C)(C)C)CC2)cc1,inactive: -18.1%
6,O=C(NCC1(N2CCCCC2)CCCCC1)c1cccc([N+](=O)[O-])c1,inactive: -17.5%
7,N#CC1(Nc2ccccc2)CCN(CCc2ccccc2)CC1,inactive: -6.1%
8,Cc1ccc(OCC(C)C)c(CN(CCCl)CCCl)c1,inactive: 13.9%
9,CCOc1ccc(C)cc1CN(CCCl)CCCl,inactive: -0.29%
10,COc1ccc(NC2CCN(CCc3ccccc3)CC2)c(OC)c1,inactive: -50.7%
11,CCOC(=O)N1CCC(Nc2ccc(OC)cc2)CC1,inactive: -17.9%
12,O=C(OC1CN2CCC1CC2)C1c2ccccc2Oc2ccccc21 (stereo unspecified),inactive: -3.9%
13,N#CC1(Nc2ccccc2)CCN(Cc2ccccc2)CC1,inactive: 8%
14,COc1ccc(C(=O)NCC2(N3CCCCC3)CCCCC2)c(OC)c1OC,inactive: -12.3%
15,CCC(CO)(C(=O)OC1CN2CCC1CC2)c1ccccc1 (stereo unspecified),inactive: -10.9%
16,COc1cc(OC)cc(C(=O)NCC2(N3CCOCC3)CCCCC2)c1,inactive: -17.1%
17,CCCOc1ccc(C)cc1CN(CCCl)CCCl,inactive: 4.36%
18,CCOc1ncccc1C(=O)NCC1(N2CCOCC2)CCCCC1,inactive: 9%
19,CC(C)(C)OC(=O)N1CCC(Nc2ccccc2)CC1,inactive: 7.64%
20,CCN1CCC(Nc2cccc(F)c2)CC1,inactive: -0.17%
21,CN(C)c1ccc(C(=O)NCC2(N3CCCCC3)CCCCC2)cc1,inactive: 6.95%
22,Fc1ccccc1NC1CCN(Cc2ccccc2)CC1,inactive: -64.8%
23,N#Cc1ccc(C(=O)NCC2(N3CCCCC3)CCCCC2)cc1,inactive: -34%
24,N/C(=N\O)c1c(N)no[n+]1[O-],inactive: 2.4%
25,O=C(OC1CN2CCC1CC2)C1c2ccccc2C=Cc2ccccc21 (stereo unspecified),inactive: -2.13%
26,COc1ccc(C(=O)NCC2(N3CCOCC3)CCCCC2)cc1OC,inactive: -17%
